Assays:
type I (IFNβ) interferon = type: cell-based, human; conditions: A549 treated 24 h, Sendai virus 8 and 16 hours
[1] = system: SARS-CoV-2 (CANADA/VIDO01/2020 strain); type: cell-based

Row | Structure (SMILES) | production of IFN (type I, IFNβ transcripts) in response to viral infection (type I (IFNβ) interferon) | SARS-CoV-2 replication / infectious virus in media of NHBE cells [1]
1 | Cn1c(=O)c2c(ncn2CC(=O)Nc2ccc(-c3ccccc3)nn2)n(C)c1=O [ETC-1922159] | significantly increased | 
2 | O=C([O-])CCN1C(=O)/C(=C/c2ccc(-c3ccc([N+](=O)[O-])cc3)o2)SC1=S.[K+] [KYA1797K] | significantly increased | no infectious virus was detected
3 | Cc1cc(-c2ncc(CC(=O)Nc3ccc(-c4cnccn4)cn3)cc2C)ccn1 [LGK-974] | significantly increased | 
4 | Cc1cc(/C=C/c2ccc3cc(N(C)C)ccc3[n+]2C)c(C)n1-c1ccccc1 [Pyrvinium] | significantly increased | 
